Assay outcomes deposited in PubChem by ICCB-Longwood Screening Facility, Harvard Medical School.
Shown are actives, neighbours in structure and some others; about 0.46% of the full set was active somewhere.
HCMV UL50-53 inh – cytomegalovirus nuclear egress complex inhibition. HTRF UL50-UL53 interaction, normalized percent inhibition. hit rate 0.15% among 190,000. inhibition, % (concentration not given with the values); in the data active = inhibition above about 27%, passing the limit was not always enough
GIV Gai3 FP – inhibitors of GIV GBA-motif binding to rat Galpha-i3. actives 0.42% (n = 210,000). Galpha-i3/FITC-GIV peptide fluorescence polarization, 90 min; active compounds read low; scaled: aluminum fluoride 0%, vehicle 100%. AID 1224905. percent of control (FP), % (no concentration beside the values). P08753;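 active means replicate mean at 85% of control or lower, very high polarization wells dropped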;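 further: wells of about 15 µL received 100 nL stock; the first replicate is given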
Numbers without * were called inactive.

For O=C(CSc1nc2c(sc3ncccc32)c(=O)n1Cc1ccc(F)cc1)Nc1ccc(F)c(F)c1 the results were HCMV UL50-53 inh 63.8* and GIV Gai3 FP 100.5.
CCOC(=O)CSc1nc2c(sc3ccccc32)c(=O)n1Cc1ccc(C)cc1 was read as GIV Gai3 FP 104.6.
Screening COc1ccc(Cn2c(SCC(=O)Nc3cccc(Cl)c3)nc3ncccc3c2=O)cc1 returned HCMV UL50-53 inh 2.0 and GIV Gai3 FP 105.0.
For CC(C)CSc1nc2c(sc3ncccc32)c(=O)n1Cc1ccccc1 the results were HCMV UL50-53 inh 62.1* and GIV Gai3 FP 103.0.
O=C(CSc1nc2c(sc3ncccc32)c(=O)n1Cc1ccccc1)Nc1ccc(F)c(F)c1 was read as HCMV UL50-53 inh 67.7* and GIV Gai3 FP 102.1.
Screening Cc1ccc(CC(C#N)Sc2nc3ccccc3n2CCC#N)cc1 (stereo unspecified) returned HCMV UL50-53 inh 6.0.
COc1ccc(Cl)cc1S(=O)(=O)Nc1ccc2nnc(C)n2n1 was read as GIV Gai3 FP 109.6.
Cc1nc2c3cc(F)ccc3n(CCN3CCOCC3)c2s1 was read as HCMV UL50-53 inh 28.0 and GIV Gai3 FP 101.8.
`CCn1c2ccc(C)cc2c2nc(C)sc21` gave HCMV UL50-53 inh 53.6* and GIV Gai3 FP 92.2.
`OCCCc1cc(-c2ccccc2)n[nH]1` gave HCMV UL50-53 inh -33.7 and GIV Gai3 FP 104.3.
`Cc1ccc(Cl)cc1NC(=O)C1CC2CSCN2C12C(=O)Nc1ccccc12` (stereo unspecified) gave HCMV UL50-53 inh -6.0 and GIV Gai3 FP 110.7.
Screening COc1ccccc1NC(=O)Nc1ccnn1C1CCCCC1 returned HCMV UL50-53 inh -6.9.
`COc1ccccc1NC(=O)Nc1ccnn1Cc1ccccc1` gave HCMV UL50-53 inh 85.3*.
For CCOc1ccc(-c2c(C#N)c(N)nc(SCC(=O)c3ccccc3)c2C#N)cc1 the results were HCMV UL50-53 inh -10.6 and GIV Gai3 FP 102.3.
For CCOC(=O)CSc1nc(N)c(C#N)c(-c2ccc(OCC)cc2)c1C#N the results were HCMV UL50-53 inh 43.6* and GIV Gai3 FP 105.5.
For N#Cc1c(N)nc(SCC(N)=O)c(C#N)c1-c1ccc(Br)cc1 the results were HCMV UL50-53 inh 66.1* and GIV Gai3 FP 105.1.
Screening COc1cc(-c2c(C#N)c(N)nc(SCC(N)=O)c2C#N)cc(OC)c1OC returned GIV Gai3 FP 109.6.
`CCOC(=O)CC(=O)CSc1nc(N)c(C#N)c(-c2cccs2)c1C#N` gave GIV Gai3 FP 110.5.
`COC(=O)CSc1nc(N)c(C#N)c(-c2ccccc2)c1C#N` gave HCMV UL50-53 inh 32.8 and GIV Gai3 FP 102.8.
CC(C)(C)C(=O)CSc1nc(N)c(C#N)c(-c2cccs2)c1C#N was read as HCMV UL50-53 inh 59.7*.
`N#Cc1c(N)nc(SCC(=O)c2ccc3ccccc3c2)c(C#N)c1-c1ccccc1` gave HCMV UL50-53 inh 20.8* and GIV Gai3 FP 97.3.
Screening Cc1ccc(-c2noc(CN(Cc3ccco3)S(C)(=O)=O)n2)cc1 returned HCMV UL50-53 inh -2.7 and GIV Gai3 FP 105.4.
CCN1C(=O)N(CC)C2C1N(C)C(=O)N2C(C)(C)C (stereo unspecified) was read as GIV Gai3 FP 104.4.
For CCOC(=O)C[N+](CC)(CC)CCOc1cc2c(cc1Cl)-c1cc(Cl)c(OCC[N+](CC)(CC)CC(=O)OCC)cc1C2=O the results were GIV Gai3 FP 114.8.

Next part; the last four above are carried over.
`N#Cc1c(N)nc(SCC(=O)c2ccc3ccccc3c2)c(C#N)c1-c1ccccc1` gave HCMV UL50-53 inh 20.8* and GIV Gai3 FP 97.3.
Screening Cc1ccc(-c2noc(CN(Cc3ccco3)S(C)(=O)=O)n2)cc1 returned HCMV UL50-53 inh -2.7 and GIV Gai3 FP 105.4.
CCN1C(=O)N(CC)C2C1N(C)C(=O)N2C(C)(C)C (stereo unspecified) was read as GIV Gai3 FP 104.4.
For CCOC(=O)C[N+](CC)(CC)CCOc1cc2c(cc1Cl)-c1cc(Cl)c(OCC[N+](CC)(CC)CC(=O)OCC)cc1C2=O the results were GIV Gai3 FP 114.8.
O=C1CCCc2cc(S(=O)(=O)NCC3CCN(Cc4cccc(F)c4)CC3)ccc2N1 was read as HCMV UL50-53 inh -26.8 and GIV Gai3 FP 102.7.
For CC(C)(C)C(=O)[C@@H]1[C@@H](c2cccs2)C(C#N)(C#N)[C@H]2C=Cc3ccccc3N12 the results were GIV Gai3 FP -45.3*.
`CC(C)(C)C(=O)[C@@H]1[C@@H](c2ccsc2)C(C#N)(C#N)[C@H]2C=Cc3ccccc3N12` gave GIV Gai3 FP 122.9.
`CCCc1ccc(S(=O)(=O)Nc2cccc(C(=O)N3CCCC(C(=O)NC4CCCC4)C3)c2)cc1` (stereo unspecified) gave GIV Gai3 FP 102.5.
C=CCNC(=O)C1CCCN(C(=O)c2cccc(NS(=O)(=O)c3ccc(C(C)C)cc3)c2)C1 (stereo unspecified) was read as GIV Gai3 FP -65.0*.
For Brc1ccc(CNc2ccc3cn[nH]c3c2)s1 the results were HCMV UL50-53 inh 56.1* and GIV Gai3 FP 115.5.
For COc1cc(OC)c(CNc2ccc3cn[nH]c3c2)cc1Br the results were HCMV UL50-53 inh -8.0 and GIV Gai3 FP 111.1.
`O=C(COC(=O)c1cc(=O)[nH]c(=O)[nH]1)Nc1ccccc1` gave HCMV UL50-53 inh 2.0.
For COc1ccc(N=Cc2sc3ccccc3c2Cl)cc1 the results were HCMV UL50-53 inh 26.8.
`Cc1ccccc1N=Cc1sc2ccccc2c1O` gave HCMV UL50-53 inh -15.2 and GIV Gai3 FP 157.5.
CCOc1ccc(N=Cc2sc3ccccc3c2O)cc1 was read as HCMV UL50-53 inh -24.5 and GIV Gai3 FP -14.8*.
